{"source": "patent US20130210034A1", "about": "“COMPLEX PHOSPHOPROTEIN ACTIVATION PROFILES” (BECKMAN COULTER, INC., priority 2005, published 2013)", "molecules": {"B1": {"name": "Interleukin- 3 (protein, UniProt P08700 20-152, looked up)", "Interleukin-3": "APMTQTTPLKTSWVNCSNMIDEIITHLKQPPLPLLDFNNLNGEDQDILMENNLRRPNLEAFNRAVKSLQNASAIESILKNLLPCLPLATAAPTRHPIHIKDGDWNEFRRKLTFYLKTLENAQAQQTTLSLAIF", "notes": "colony-stimulating cytokine"}}, "test_system": "pSTAT5", "test": "Phosphoprotein kinetic profiles in bone marrow samples from healthy donors", "assay_type": "cell-based, human", "conditions": "CD34^+, CD117^+ cells, healthy donor samples", "procedure": "Phosphoprotein kinetic profiles were analyzed in bone marrow aspiration samples from nine healthy, adult donors (i.e., normal bone marrow or NBM) and from five AML patients. Samples from healthy donors included 5 males and 4 females, ranging in age from 26 to 49 years. Approximately 10 to 20 mL of bone marrow (BM) samples were collected from the posterior iliac crest of the volunteers using IRB approved protocols. The BM samples were filtered using a 40 μm Nylon cell strainer to remove marrow particles and the white blood cell concentration determined using a blood analyzer. The samples contained approximately 7 to 31 million white blood cells (WBCs) per mL. The samples were immediately used for subsequent experimentation. […]\nTo stain cells with fluorescent conjugated monoclonal antibodies, the incubated solution was centrifuged to remove the supernatant and the pellet was incubated for 60 minutes at 4° C. with an antibody staining solution including 0.25 μg to 0.50 μg of pS6-Pacific Blue, pERK-ALEXA 488, pSTAT5-ALEXA 647, CD34-PE, CD45-PerCP, and CD117-PC7. Samples were washed three times with ice-cold Wash Buffer supplemented with 1×PIC, resuspended in 0.5 mL ice-cold Wash Buffer supplemented with 1×PIC including 0.5 μg/mL DAPI, and analyzed by flow cytometryusing a BD LSR II Flow Cytometer, equipped with a High Throughput Sampler (HTS). […]", "note": "Several values for one entry are separate records, joined by “and”; a condition that tells them apart may be missing. Equal values may be shown once.", "data": [{"molecule": "B1", "values": [{"measurement": "pSTAT5 Amp (peak amplitude of fold stimulation)", "result": "38 and 38 ± 12"}, {"measurement": "pSTAT5 RI (response interval)", "result": ">60", "unit": "min"}]}]}
